miR-21 reporter = miR-21 reporter, rising signal | HeLa miR-21 FLuc reporter, luciferase, 48 h | Potency, µM (highest dose often 38.3 µM) | 340,000 tested, under 10 active | AID 2288; active = well fitted rising curve with a large enough effect; inconclusive = small, poorly fitted or top-dose-only effect; inactive = no such curve, though single readings can be large or run the other way;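 further: miR-21 action dims this reporter so a rising signal means less miR-21 action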
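Using DMEM plus 10% FBS, HeLa miR-21-FLuc cells are incubated with test compounds (final up to about 40uM) for 48 hours; firefly luciferase signal is then imaged following reagent-mediated lysis.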
A549 tox-1 = counter-screen for Nrf2 inhibitors: cytotoxicity in A549 cells | A549 ARE-Fluc cells, CellTiter-Fluor viability, 18-24 h | Potency, µM (highest dose often 46 µM), hits mostly inhibitors | 390,000 compounds, 0.16% hits | AID 504648
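A549 ARE_Fluc cells in 5% FBS OPTI-MEM were exposed to compounds in concentration-response for 18-24 h at 37 deg C. Viability was read by CellTiter-Fluor fluorescence (Ex 405/Em 525) after 30 min, before the luciferase read.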
Mito fusion yeast = inhibitors of mitochondrial division or activators of mitochondrial fusion | S. cerevisiae fusion-defective mutant growth rescue, CellTiterGlo 48 h | Potency, µM (doses to about 46.1 µM), usual class: activators | 320,000 compounds, 0.23% hits | AID 485298; further: nearly all actives have a fitted effect of over 45% in size
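S. cerevisiae fusion-defective temperature-sensitive mutants (e.g. fzo1-1, mgm1-5) grown 48 h at 37C in YPEG (ethanol/glycerol non-fermentable) medium with 23 nl compound per well; growth rescue read as CellTiterGlo luminescence.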
Nrf2 block = Nrf2 pathway inhibition; Potency, µM (titrated, usually from 46 µM), most hits filed as inhibitors; A549 ARE-Fluc reporter, luciferase luminescence, 18-24 h; 360,000 compounds, 2.1% hits; further: nearly all actives have a fitted effect of over 60% in size
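In this cell-based qHTS, ARE-driven firefly luciferase in A549 cells reports Nrf2 activity; the luminescent signal after BugLite lysis is the measured value, with a prior CellTiter-Fluor read for cell health.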
Nrf2 ARE act = activators of Nrf2 (ARE) signaling; AID 624171; AREc32 ARE-luciferase reporter (MCF7-derived line), luminescence, 24 h; 410,000 compounds, 0.31% hits; Potency, µM (top dose mostly 46.1 µM), actives largely listed as activators; further: nearly all actives have a fitted effect of over 65% in size
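AREc32_Fluc, 1000 cells/well, OPTI-MEM + 5% FBS, o/n 37 deg C 5% CO2; 23 nL cpd by pin tool, 24 hr; Steady-Glo 30 min RT, luminescence.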
FLuc enzyme inh = firefly luciferase inhibition, Nrf2 hit validation | purified firefly luciferase, luminescence inhibition | shares compounds with Nrf2 block | 1,400 compounds, 4% hits | Potency, µM (titrated, usually from 57.5 µM), usual class: inhibitors; further: nearly all actives have a fitted effect of over 65% in size
A549 tox-2 = A549 cytotoxicity, Nrf2 inhibitor counterscreen; shares compounds with Nrf2 block; A549 ARE-Fluc cells, cytotoxicity counterscreen; Potency, µM (series often up to 46.1 µM), hits mostly inhibitors; 1,400 compounds, 2% hits; AID 720523;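 further: cells exposed to compounds for 18 to 24 hours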
ARE-Fluc inh = confirmation of Nrf2 inhibitors in A549 ARE reporter cells; shares compounds with Nrf2 block; A549 ARE-firefly luciferase reporter, luminescence; Potency, µM (top dose mostly 46.1 µM), hits mostly inhibitors; 1,400 compounds, 74% hits; AID 720524; further: nearly all actives have a fitted effect of over 65% in size
Each line names hits and unclear results; the compound was inactive in the other large screens (follow-up assays come after a bar, where shown). In the library only some 2.3% were active in any assay of this set; here they are far more common. Unless noted, the call rests on the fitted dose curve; in most records, active means well fitted curve in the direction sought with a large enough effect; inconclusive means small, poorly fitted or top-dose-only effect, or another doubt; inactive means no such curve, though single readings can be large; an effect the other way counts as inactive or inconclusive.

S=c1[nH]nc(Cn2c(-c3ccccn3)nc3ccccc32)n1-c1ccc2c(c1)OCCO2	none
CCOc1ccc(NC(=O)c2cc3c(C)nn(-c4ccccc4)c3s2)cc1	Nrf2 block inconclusive (no result: Mito fusion yeast)
C[C@]12CCC3C(CCC4=CC(O)CC[C@@]43/C=N/O)C1(O)CCC2C1=CC(=O)OC1 (stereo not given in full)	miR-21 reporter inconclusive, Nrf2 block inconclusive
CC12CC[C@H]3[C@@H](CCC4(O)C[C@H](O)CCC34/C=N/NC(=O)c3ccccc3Cl)C1(O)CCC2C1=CC(=O)OC1 (stereo not given in full)	none
C[C@H]1O[C@@H](O[C@H]2[C@@H](O)C[C@H](O[C@H]3[C@@H](O)C[C@H](O[C@H]4CC[C@@]5(C)[C@H](CC[C@@H]6[C@@H]5CC[C@]5(C)[C@@H](C7=CC(=O)OC7)CC[C@]65O)C4)O[C@@H]3C)O[C@@H]2C)C[C@H](O)[C@@H]1O	miR-21 reporter inconclusive, A549 tox-1 inconclusive, Nrf2 block 0.0164µM
C[C@@H]1O[C@@H](O[C@H]2C[C@@H](O)[C@]3(CO)[C@H]4[C@H](O)C[C@]5(C)[C@@H](C6=CC(=O)OC6)CC[C@]5(O)[C@@H]4CC[C@]3(O)C2)[C@H](O)[C@H](O)[C@H]1O	miR-21 reporter inconclusive, A549 tox-1 inconclusive, Nrf2 block 0.0058µM
CC1OC(OC2C(O)CC(OC3C(O)CC(OC4CCC5(C)C(CCC6C5CCC5(C)C(C7=CC(=O)OC7)C(O)CC65O)C4)OC3C)OC2C)CC(O)C1O (stereo not given)	A549 tox-1 inconclusive, Nrf2 block 0.092µM (no result: miR-21 reporter, Mito fusion yeast)
Cc1onc(-c2ccccc2Cl)c1C(=O)OCC(=O)c1ccc2c(c1)OCCO2	Nrf2 block inconclusive
COc1cccc(-n2nnc3c(sc4nc(C)cc(C)c43)c2=O)c1	Nrf2 block inconclusive (no result: Mito fusion yeast)
O=C(NNc1c(F)c(F)cc(F)c1F)c1cc2ccccc2oc1=O	none
C=CCn1c(O)c(C(C)=NCc2ccc3c(c2)OCO3)c(=O)[nH]c1=O	Nrf2 block 20.6µM
CCC(=NCCO)c1c(O)n(C2CCCCC2)c(=O)[nH]c1=O	none
CCC(=NCc1ccc2c(c1)OCO2)c1c(O)n(C2CCCCC2)c(=O)[nH]c1=O	Mito fusion yeast inconclusive, Nrf2 block 11.6µM (no result: A549 tox-1)
CC1CC(C)CC(C)C(O)C(C#N)=CC=CCC(C2CCCC2C(=O)O)OC(=O)CC(O)C(C)C1 (stereo not given)	A549 tox-1 2.31µM, Nrf2 block 0.517µM (no result: miR-21 reporter, Mito fusion yeast)
COc1ccccc1CNC(=O)CCC1N=C2c3ccccc3N=C(SCc3cccc(Cl)c3)N2C1=O (stereo not given)	miR-21 reporter inconclusive (no result: Mito fusion yeast)
CCN(CC)C(=O)c1ccc(NC(=O)c2cc(S(=O)(=O)N3CCCCCC3)ccc2OC)cc1	Nrf2 block inconclusive (no result: miR-21 reporter)
CCN(CC)C(=O)c1ccc(NC(=O)c2cccc(S(=O)(=O)N3CCN(Cc4ccccc4)CC3)c2)cc1	A549 tox-1 inconclusive, Nrf2 block 2.06µM (no result: miR-21 reporter) | FLuc enzyme inh inactive | A549 tox-2 inactive | ARE-Fluc inh 8.2µM
CCCOP(=O)(OCCC)C(Nc1ccc(C(C)C)cc1)c1ccc([N+](=O)[O-])cc1 (stereo not given)	Nrf2 block inconclusive
C[C@H]1O[C@@H](OC2CC[C@]3(C=O)[C@H]4CC[C@]5(C)[C@@H](C6=CC(=O)OC6)CC[C@]5(O)[C@@H]4CC[C@]3(O)C2)CC2OC(C)(C)OC21 (stereo not given in full)	miR-21 reporter inconclusive, A549 tox-1 inconclusive, Nrf2 block 0.164µM | FLuc enzyme inh inactive | A549 tox-2 inconclusive | ARE-Fluc inh 0.0651µM
CC(=O)O[C@H]1CC[C@@]2(C)C(=CC(=O)C3C2CC[C@@]2(C)C3C[C@H](OC(C)=O)[C@@H]2OC(C)=O)C1 (stereo not given in full)	none (no result: miR-21 reporter, Mito fusion yeast)
C[C@]12CC[C@H]3[C@@H](CC[C@]4(O)C[C@@H](O)CC[C@]34C=O)[C@@]1(O)CC[C@@H]2C1=CC(=O)OC1	A549 tox-1 inconclusive, Nrf2 block 0.259µM (no result: miR-21 reporter) | FLuc enzyme inh inactive | A549 tox-2 inactive | ARE-Fluc inh 0.411µM
CC(=O)O[C@H]1CC[C@]2(C=O)C3CC[C@]4(C)[C@@H](C5=CC(=O)OC5)CC[C@]4(O)C3CC[C@]2(O)C1 (stereo not given in full)	Nrf2 block 0.259µM (no result: miR-21 reporter, Mito fusion yeast, Nrf2 ARE act) | FLuc enzyme inh inactive | A549 tox-2 inconclusive | ARE-Fluc inh 0.366µM
CC12CCC3C(CCC4(O)CC(O)CCC34C=O)C1(O)CCC2C1=CC(=O)OC1 (stereo not given)	A549 tox-1 inconclusive, Nrf2 block 0.461µM (no result: miR-21 reporter, Mito fusion yeast) | FLuc enzyme inh inactive | A549 tox-2 inconclusive | ARE-Fluc inh 0.411µM
Cc1ccc(Cn2c(SCc3ccc(C(=O)NC4CCCC4)cc3)nc3ccncc32)cc1	miR-21 reporter inconclusive, Nrf2 block inconclusive (no result: Mito fusion yeast)
O=c1c2ccccc2cnn1Cc1n[nH]c(=S)n1C1CC2CCC1C2 (stereo not given)	Nrf2 block inconclusive
COc1ccc(C2/C=C\CN(C(=O)Oc3ccc(C(F)(F)F)cc3)CC(=O)N2Cc2ccc(F)cc2)cc1 (stereo not given)	A549 tox-1 inconclusive, Nrf2 block inconclusive
CCCCN=C[C@]12CCC(O)CC1(O)CCC1[C@@H]2CC[C@]2(C)[C@H](C3C=CC(=O)O3)CCC12O (stereo not given in full)	miR-21 reporter inconclusive, Nrf2 block inconclusive
CC12CCC3C(CCC4(O)CC(O)CCC34C=NO)C1(O)CCC2C1=COC(=O)C1 (stereo not given)	A549 tox-1 inconclusive, Nrf2 block 0.058µM (no result: miR-21 reporter, Mito fusion yeast) | FLuc enzyme inh inactive | A549 tox-2 inconclusive | ARE-Fluc inh 0.103µM
COc1ccc(-c2nc(CSCC(=O)N3CCN(c4ccc(F)cc4)CC3)c(C)o2)cc1	miR-21 reporter inconclusive, Nrf2 block 3.26µM (no result: Mito fusion yeast) | FLuc enzyme inh inactive | A549 tox-2 inactive | ARE-Fluc inh 7.31µM
CCc1ccc(-c2nc(CSCC(=O)N3CCN(c4ccc(F)cc4)CC3)c(C)o2)cc1	Nrf2 block 7.31µM (not shown: Mito fusion yeast) | FLuc enzyme inh inactive | A549 tox-2 inactive
